Molecular target: T1, human NPRA (Homo sapiens, UniProt P16066)
T1 construct: Full-Length cDNA Cloning and Generation of Cell Lines Overexpressing Natriuretic Peptide Receptors (NPRs); expressed in transfected cells; host or cells: Jump-in T-Rex HEK293 cells, pJTI R4 CMV-TO MCS pA vector, tetracycline induction
T1 sequence (P16066 33-1061): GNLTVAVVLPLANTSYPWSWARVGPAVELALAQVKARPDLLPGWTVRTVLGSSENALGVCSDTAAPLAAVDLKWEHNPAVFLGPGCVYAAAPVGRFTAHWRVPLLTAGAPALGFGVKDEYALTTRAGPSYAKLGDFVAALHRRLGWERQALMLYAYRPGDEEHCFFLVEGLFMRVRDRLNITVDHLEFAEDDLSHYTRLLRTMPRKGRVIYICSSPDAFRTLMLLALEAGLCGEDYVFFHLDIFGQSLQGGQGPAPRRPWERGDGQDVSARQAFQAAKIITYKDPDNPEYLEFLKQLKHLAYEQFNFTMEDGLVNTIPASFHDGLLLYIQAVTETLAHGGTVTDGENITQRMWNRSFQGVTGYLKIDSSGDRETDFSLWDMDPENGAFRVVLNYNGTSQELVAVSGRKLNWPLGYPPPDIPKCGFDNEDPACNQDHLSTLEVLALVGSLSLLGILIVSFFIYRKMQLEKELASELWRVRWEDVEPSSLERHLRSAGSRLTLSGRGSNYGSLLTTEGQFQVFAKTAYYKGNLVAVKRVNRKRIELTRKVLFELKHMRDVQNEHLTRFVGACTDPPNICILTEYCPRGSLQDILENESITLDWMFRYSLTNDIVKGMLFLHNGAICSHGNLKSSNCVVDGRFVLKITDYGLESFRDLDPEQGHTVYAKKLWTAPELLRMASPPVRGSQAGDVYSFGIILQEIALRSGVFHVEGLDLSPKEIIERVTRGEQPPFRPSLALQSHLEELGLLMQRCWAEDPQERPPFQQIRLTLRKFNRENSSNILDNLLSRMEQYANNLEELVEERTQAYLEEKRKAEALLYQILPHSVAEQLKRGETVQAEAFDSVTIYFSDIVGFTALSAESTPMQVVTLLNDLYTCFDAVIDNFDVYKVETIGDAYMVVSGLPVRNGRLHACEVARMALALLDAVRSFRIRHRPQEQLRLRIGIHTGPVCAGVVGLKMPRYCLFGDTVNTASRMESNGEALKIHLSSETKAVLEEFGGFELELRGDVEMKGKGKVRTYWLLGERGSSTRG
Test: Human NPRA cGMP activity assay (HTRF) in HEK293 cells overexpressing NPRA
Type: cell-based
Method in brief: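 cGMP measured by HTRF and scaled between buffer (minimum) and 100 nM amidated rat ANP (maximum). Polypeptides in 10-fold steps from 10 μM to 1 pM, 0.5% DMSO, 0.5 mM IBMX, 40 min at room temperature, on induced NPRA-overexpressing HEK293 cells.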

[1] = cGMP Assay (EC50, pM) w/BSA hNPRA, assay buffer with 0.1% BSA
[2] = cGMP Assay (EC50, pM) w/Casein hNPRA, assay buffer with 0.1% casein

CC[C@H](C)[C@@H]1NC(=O)[C@H](CCCNC(=N)N)NC(=O)[C@H](CC(=O)O)NC(=O)[C@H]([C@@H](C)CC)NC(=O)[C@H](CCCNC(=N)N)NC(=O)CNC(=O)CNC(=O)[C@H](Cc2ccccc2)NC(=O)[C@@H](NC(=O)[C@H](CO)NC(=O)[C@H](CO)NC(=O)[C@H](CCCNC(=N)N)NC(=O)[C@H](CCCNC(=N)N)NC(=O)[C@H](Cc2ccncc2)NC(=O)[C@H](CO)NC(=O)CNC(=O)[C@H](CCCCN)NC(=O)[C@H](CCC(=O)O)NC(=O)[C@H](CCCCN)NC(=O)[C@H](CCC(=O)O)NC(=O)[C@H](CCCCN)NC(=O)[C@H](CCC(=O)O)NC(=O)CC[C@H](NC(=O)CCCCCCCCCCCCCCCCCCC(=O)O)C(=O)O)CSCSC[C@@H](C(=O)N2CCC[C@H]2C(=O)N[C@@H](CO)C(=O)N[C@@H](Cc2ccccc2)C(=O)N[C@@H](CCCNC(=N)N)C(=O)N[C@@H](Cc2c[nH]cn2)C(=O)NCC(=O)NCC(=O)N[C@@H](CO)C(=O)N[C@@H](CO)C(=O)NCC(=O)N[C@@H](C)C(=O)N2CCC[C@H]2C(=O)N2CCC[C@H]2C(=O)N2CCC[C@H]2C(=O)N[C@@H](CO)C(N)=O)NC(=O)CNC(=O)[C@H](CC(C)C)NC(=O)CNC(=O)[C@H](CO)NC(=O)[C@H](CCC(N)=O)NC(=O)[C@H](Cc2c[nH]cn2)NC(=O)CNC1=O [Example 66]
EC50 [1]: 140000 pM
EC50 [2]: 826 pM

CC[C@H](C)[C@@H]1NC(=O)[C@H](CCCNC(=N)N)NC(=O)[C@H](CC(=O)O)NC(=O)[C@H]([C@@H](C)CC)NC(=O)[C@H](CCCNC(=N)N)NC(=O)[C@H](CCCCN)NC(=O)CNC(=O)[C@H](Cc2ccccc2)NC(=O)[C@@H](NC(=O)[C@H](CO)NC(=O)[C@H](CO)NC(=O)[C@H](CCCNC(=N)N)NC(=O)CCNC(=O)[C@H](CCCCN)NC(=O)[C@H](CCC(=O)O)NC(=O)CCOCCOCCOCCOCCOCCOCCOCCOCCOCCOCCOCCOCCOCCOCCOCCOCCOCCOCCOCCOCCOCCOCCOCCOCCNC(=O)CNC(=O)[C@H](CCCCN)NC(=O)[C@H](CCC(=O)O)NC(=O)[C@H](CCCCN)NC(=O)[C@H](CCC(=O)O)NC(=O)[C@H](CCCCN)NC(=O)[C@H](CCC(=O)O)NC(=O)CC[C@H](NC(=O)CCCCCCCCCCCCCCCCCCC(=O)O)C(=O)O)CSCSC[C@@H](C(=O)N2CCC[C@H]2C(=O)N[C@@H](CO)C(=O)N[C@@H](Cc2ccccc2)C(=O)N[C@@H](CCCNC(=N)N)C(=O)N[C@@H](Cc2c[nH]cn2)C(=O)NCC(=O)NCC(=O)N2CCC[C@H]2C(N)=O)NC(=O)CNC(=O)[C@H](CC(C)C)NC(=O)CNC(=O)[C@H](CO)NC(=O)[C@H](Cc2ccc(O)cc2)NC(=O)[C@H](Cc2c[nH]cn2)NC(=O)CNC1=O [Example 129]
EC50 [1]: 2960 pM
EC50 [2]: 1010 pM

Source: patent US20240174727A1, “LONG-ACTING NATRIURETIC PEPTIDES AND USES THEREOF” (Eli Lilly and Company, priority 2022, published 2024)
